Measurements reported in patent EP3636255A1 (priority 2018, dated 2020).

Experiments:
[1] = tested on: CCT/TRiC temperature-sensitive mutants; conditions: compared to WT expressing CerS3 or control thermo-sensitive strains; 3 days at 24°C
CCT/TRiC = assay: Chemoproteomic target identification by photo-cross-linking and biotin-streptavidin pull-down in the yeast cytosolic fraction; conditions: UV 365 nm, biotin-streptavidin pull-down

| Structure (SMILES) | sensitivity of temperature sensitive CCT/TRiC mutants expressing CerS3 [1] | cross-linking to interacting protein targets, all 8 subunits of CCT/TRiC (CCT/TRiC) |
| --- | --- | --- |
| CCCCCCCCCCCCCCCC(O)C(C)N (centres unmarked) [Formula 1, 2-aminooctadecan-3-ol] | hypersensitivity |  |
| C#CCCCC1(CCCCCCCCC(=O)N[C@@H](C)[C@H](O)CCCCCCCCCCCCCCC)N=N1 [Formula (II"'), N-((2S,3R)-3-hydroxyoctadecan-2-yl)-9-(3-(pent-4-yn-1-yl)-3H-diazirin-3-yl)nonanamide] |  | cross-linked |
